Target: human 11b-hsd-1 (Homo sapiens, UniProt P28845)
Assay: Inhibition constant Ki of human 11b-hsd-1 (3H-cortisone to 3H-cortisol conversion, HPLC)
Assay type: biochemical

By UniProt entry, the sequences of proteins in these tests, tags left out.
UniProt P28845, whole entry: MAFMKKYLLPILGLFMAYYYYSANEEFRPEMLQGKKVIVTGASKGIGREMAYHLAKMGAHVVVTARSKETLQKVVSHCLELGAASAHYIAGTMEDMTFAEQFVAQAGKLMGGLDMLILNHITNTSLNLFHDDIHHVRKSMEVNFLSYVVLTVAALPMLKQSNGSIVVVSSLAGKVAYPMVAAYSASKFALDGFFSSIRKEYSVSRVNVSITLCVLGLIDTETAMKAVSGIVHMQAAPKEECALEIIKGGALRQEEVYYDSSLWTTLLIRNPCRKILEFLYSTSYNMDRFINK

% inh @ 0.1 μM (compound at 0.1 μM): 100%
Ki (read-out: Ki app, apparent Ki, human 11b-hsd-1): 1.6 nM
SMILES: O=C(NC12CC3CC(CC(C3)C1)C2)C1COCCN1Cc1cccc(OC(F)F)c1 (centres unmarked)
